Measurements: patent US6586191B2 (dated 2003)

By UniProt entry, the sequences of proteins in these tests, tags left out. Where a name states a change or a piece, a line headed by the entry shows the natural chain unless it says otherwise.
UniProt P47211: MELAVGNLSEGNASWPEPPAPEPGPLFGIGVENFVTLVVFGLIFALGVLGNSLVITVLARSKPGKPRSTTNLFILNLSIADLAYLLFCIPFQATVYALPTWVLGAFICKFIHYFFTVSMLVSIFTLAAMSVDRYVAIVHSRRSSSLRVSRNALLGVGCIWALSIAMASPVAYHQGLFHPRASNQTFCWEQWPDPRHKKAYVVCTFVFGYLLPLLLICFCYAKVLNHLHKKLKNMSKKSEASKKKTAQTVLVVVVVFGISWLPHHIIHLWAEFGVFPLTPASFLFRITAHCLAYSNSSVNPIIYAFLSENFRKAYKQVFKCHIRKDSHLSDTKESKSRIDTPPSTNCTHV

What was measured:
human GALR2 receptor = target: T1, human GALR2 receptor (Homo sapiens, UniProt O43603); assay: competition binding vs porcine 125I-galanin, human GALR2 (BO29) transiently expressed in COS-7 membranes; details: read-out: Human GALR2 Ki
T1 sequence (O43603 1-387): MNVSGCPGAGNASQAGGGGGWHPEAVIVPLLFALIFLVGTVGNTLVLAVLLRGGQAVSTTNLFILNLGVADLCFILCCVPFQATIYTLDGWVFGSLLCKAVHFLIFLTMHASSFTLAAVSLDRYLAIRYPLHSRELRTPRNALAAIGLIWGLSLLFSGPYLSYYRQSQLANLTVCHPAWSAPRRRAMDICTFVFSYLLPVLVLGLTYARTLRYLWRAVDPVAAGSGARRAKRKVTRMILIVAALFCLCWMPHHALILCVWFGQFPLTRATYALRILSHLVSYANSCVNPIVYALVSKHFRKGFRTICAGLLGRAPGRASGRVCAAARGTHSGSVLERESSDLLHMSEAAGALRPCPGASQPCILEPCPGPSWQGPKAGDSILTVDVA

[1] = target: cloned human GALR1 receptor (Homo sapiens, UniProt P47211); details: read-out: affinity (Ki vs. 125I-galanin); cited from earlier work

Q: Which Ki (human GALR2 receptor) does the source give for rat galanin here?
A: Its Ki is 1 nM.

Q: And the Ki [1]?
A: Its Ki is ~1 nM.
